Measured values taken from patent US9708318B2, “Bicyclic heterocycles as FGFR4 inhibitors” (Incyte Corporation, priority 2015, dated 2017).

Protein sequences, listed by entry. Tags and fused reporters are not part of them. Residues count along the entry.
UniProt P11362, 22-822: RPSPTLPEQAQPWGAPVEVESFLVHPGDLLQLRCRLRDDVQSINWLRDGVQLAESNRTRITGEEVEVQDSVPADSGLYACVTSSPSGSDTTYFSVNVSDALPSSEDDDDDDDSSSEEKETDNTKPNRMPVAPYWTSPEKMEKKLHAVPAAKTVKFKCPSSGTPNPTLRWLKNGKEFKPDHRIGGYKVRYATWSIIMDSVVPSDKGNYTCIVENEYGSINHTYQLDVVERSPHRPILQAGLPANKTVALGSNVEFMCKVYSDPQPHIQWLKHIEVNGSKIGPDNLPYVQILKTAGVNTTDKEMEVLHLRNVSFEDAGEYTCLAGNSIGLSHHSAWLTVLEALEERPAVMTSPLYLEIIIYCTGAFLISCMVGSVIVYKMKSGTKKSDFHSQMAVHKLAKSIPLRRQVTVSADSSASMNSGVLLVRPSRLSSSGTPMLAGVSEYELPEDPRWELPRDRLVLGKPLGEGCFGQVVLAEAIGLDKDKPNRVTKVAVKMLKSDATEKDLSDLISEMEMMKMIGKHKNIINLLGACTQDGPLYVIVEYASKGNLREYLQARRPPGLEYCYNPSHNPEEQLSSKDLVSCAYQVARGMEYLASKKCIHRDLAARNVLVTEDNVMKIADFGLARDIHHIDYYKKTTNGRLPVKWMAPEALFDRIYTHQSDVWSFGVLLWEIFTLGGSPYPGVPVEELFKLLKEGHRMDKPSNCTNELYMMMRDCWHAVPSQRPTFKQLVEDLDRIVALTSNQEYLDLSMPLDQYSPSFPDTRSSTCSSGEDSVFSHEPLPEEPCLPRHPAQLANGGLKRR
UniProt P22455, 22-802: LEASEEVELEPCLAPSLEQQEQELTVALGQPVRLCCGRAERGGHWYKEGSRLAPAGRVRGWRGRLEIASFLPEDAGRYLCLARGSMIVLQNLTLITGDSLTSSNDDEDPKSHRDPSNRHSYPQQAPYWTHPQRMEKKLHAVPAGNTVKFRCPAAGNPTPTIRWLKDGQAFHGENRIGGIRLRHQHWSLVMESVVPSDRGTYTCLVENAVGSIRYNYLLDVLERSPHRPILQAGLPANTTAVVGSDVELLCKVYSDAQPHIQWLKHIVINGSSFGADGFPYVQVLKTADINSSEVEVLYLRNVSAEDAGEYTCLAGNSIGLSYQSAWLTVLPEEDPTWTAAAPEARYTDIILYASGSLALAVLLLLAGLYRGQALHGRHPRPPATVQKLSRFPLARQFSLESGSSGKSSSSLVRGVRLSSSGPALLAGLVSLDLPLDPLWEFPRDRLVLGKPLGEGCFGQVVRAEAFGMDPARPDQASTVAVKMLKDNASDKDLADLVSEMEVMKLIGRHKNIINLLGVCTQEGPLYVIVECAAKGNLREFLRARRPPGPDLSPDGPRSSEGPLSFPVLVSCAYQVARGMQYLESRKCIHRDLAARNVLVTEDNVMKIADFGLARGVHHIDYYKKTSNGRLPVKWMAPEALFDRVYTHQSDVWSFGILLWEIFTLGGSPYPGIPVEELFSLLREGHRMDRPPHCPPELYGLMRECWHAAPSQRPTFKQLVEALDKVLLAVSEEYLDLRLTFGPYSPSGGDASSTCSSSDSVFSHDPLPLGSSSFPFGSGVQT

Key:
FGFR1 = FGFR1 (Homo sapiens (Human), UniProt P11362); assay: FGFR Enzymatic Assay (FRET peptide phosphorylation), FGFR1; settings: FGFR1 IC50 (nM), pre-incubated for 4 hours
FGFR4 = FGFR4 (Homo sapiens (Human), UniProt P22455); assay: FGFR Enzymatic Assay (FRET peptide phosphorylation), FGFR4; format: biochemical
Description: The inhibitor potency of the exemplified compounds was measured in an enzyme assay that measures peptide phosphorylation using FRET measurements to detect product formation. Inhibitors were serially diluted in DMSO and a volume of 0.5 μL was transferred to the wells of a 384-well plate.
The enzymes were purchased from Millipore or Invitrogen.
GraphPad prism3 was used to analyze the data.

Work on `COc1cc(OC)c(F)c(N2Cc3cnc(-c4cn(C)nc4C)cc3N(c3cccc(C#N)c3)C2=O)c1F` [Example 60, 3-(3-(2,6-difluoro-3,5-dimethoxyphenyl)-7-(1,3-dimethyl-1H-pyrazol-4-yl)-2-oxo-3,4-dihydropyrido[4,3-d]pyrimidin-1(2H)-yl)benzonitrile] yielded an IC50 (FGFR1) of 30 to 200 nM and an IC50 (FGFR4) of 0.03 to 0.2 µM.
